The IC50 is the concentration needed to halve the response being measured. A high value points to a need for much substance.

The record followed here is patent US12528818B2, “Compositions and methods for inhibition of RAS” (Leidos Biomedical Research, Inc., priority 2021, dated 2026).

Bounds are passed on as bounds.

Assay [1] concerns the target GppNHp-loaded KRAS4b (amino acids 1-169) G12C/C118S protein (Homo sapiens, UniProt P01116, C118S/G12C). The experiment in a line: Covalent cysteine 12 modification by MALDI-TOF MS, GppNHp-loaded KRAS G12C. It is filed as biochemical. The note with it: 15 minutes reaction time.
For assay [2], the target named is GDP-loaded KRAS4b (amino acids 1-169) G12C/C118S protein (Homo sapiens, UniProt P01116, C118S/G12C). The experiment in a line: Covalent cysteine 12 modification by MALDI-TOF MS, GDP-loaded KRAS G12C. The note with it: 15 minutes reaction time. Format: biochemical.
For assay [3], the target named is Avi-KRAS G12C (1-169) GppNHp/RAF1 RBD-3xFLAG (52-151) (Homo sapiens, UniProt P01116, G12C). The experiment in a line: biochemical. The note with it: Raf1-GppNHp-KRAS G12C disruption, Raf1 RBD-KRAS G12C-GppNHp disruption assay IC50.
The mark [4] stands for this setting: compounds 94 or before using 5 μM proteins.
The mark [5] stands for this setting: compound 95 or later using 1 μM proteins.

With `C#Cc1cc2c(N3CCN(C(=O)CCl)CC3)ncnc2c(F)c1-c1ccc(F)c2sc(N)nc12` [Compound 41], the “GppNHp-KRAS G12C percent of modification” value in assay [1] (setting [4]) is reported as “A (percent of modification ≥70%)”. For the same molecule, the “GDP-KRAS G12C percent of modification” value in assay [2] (setting [4]) is listed as “A (percent of modification ≥70%)”. This molecule also returned an IC50 in assay [3] of 500 to 5000 nM.

For the molecule `C=CC(=O)N1CC(N(C)c2nc(OC[C@@H]3CCCN3C)nc3c(F)c(-c4ccc(F)c5sc(N)nc45)c(Cl)cc23)C1` [Compound 73], the “GppNHp-KRAS G12C percent of modification” value in assay [1] (setting [4]) is recorded as “C (10%≤percent of modification <50%)”. Besides, in assay [2] (setting [4]), the “GDP-KRAS G12C percent of modification” value was “A (percent of modification ≥70%)”. Moreover, in assay [3], the IC50 was in the range of 5000 to 20000 nM.

Take `C=CC(=O)N1CC(Nc2nc(OCC34CCCN3CCC4)nc3c(F)c(-c4ccc(F)c5sc(N)nc45)c(Cl)cc23)C1` [Compound 49, 1-(3-((7-(2-amino-7-fluorobenzo[d]thiazol-4-yl)-6-chloro-8-fluoro-2-((tetrahydro-1H-pyrrolizin-7a(5H)-yl)methoxy)quinazolin-4-yl)amino)azetidin-1-yl)prop-2-en-1-one]: in assay [1] (setting [4]), the “GppNHp-KRAS G12C percent of modification” value is “A (percent of modification ≥70%)”. Besides, in assay [2] (setting [4]), the “GDP-KRAS G12C percent of modification” value was “A (percent of modification ≥70%)”. This molecule showed an IC50 in assay [3] of under 500 nM.

For the molecule `C=CC(=O)N1CCN(c2nc(OC[C@@]34CCCN3C[C@H](F)C4)nc3c(F)c(-c4ccc(F)c5sc(N)nc45)c(C(F)(F)F)cc23)[C@@H](C)C1` [Compound 189], the “GppNHp-KRAS G12C percent of modification” value in assay [1] (setting [5]) was “C (10%≤percent of modification <50%)”. Moreover, the “GDP-KRAS G12C percent of modification” value in assay [2] (setting [5]) was “B (50≤percent of modification <70%)”. In assay [3], the IC50 was under 500 nM.

As for `C=CC(=O)N1CCN(c2nc(OCC34CCCN3CCC4)nc3c(F)c(-c4ccc(F)c5sc(N)nc45)c(C(C)(F)F)cc23)CC1` [Compound 284], the “GppNHp-KRAS G12C percent of modification” value in assay [1] (setting [5]) is “D (percent of modification <10%)”. Further, the “GDP-KRAS G12C percent of modification” value in assay [2] (setting [5]) is on record as “D (percent of modification <10%)”. The molecule further yielded an IC50 in assay [3] of 500 to 5000 nM.

In the case of `C=CC(=O)N1CC[C@@H](N(C)c2nc(OC[C@@H]3CC4(CC4)CN3C)nc3c(F)c(-c4ccc(F)c5sc(N)nc45)c(C(F)(F)F)cc23)C1` (atropisomer, axis not shown) [Compound 256], the “GppNHp-KRAS G12C percent of modification” value in assay [1] (setting [5]) is “C (10%≤percent of modification <50%)”. Moreover, in assay [2] (setting [5]), the “GDP-KRAS G12C percent of modification” value was “C (10%≤percent of modification <50%)”. This molecule also showed an IC50 in assay [3] of 500 to 5000 nM.

Turning to `C=CC(=O)N1CC(N(C)c2nc(OCC34CCCN3CC(F)(F)C4)nc3c(F)c(-c4ccc(F)c5sc(N)nc45)c(C(F)(F)F)cc23)C1` (stereo not drawn) [Compound 187], the “GppNHp-KRAS G12C percent of modification” value in assay [1] (setting [5]) is “D (percent of modification <10%)”. Besides, the “GDP-KRAS G12C percent of modification” value in assay [2] (setting [5]) is recorded as “C (10%≤percent of modification <50%)”. The same molecule came in with an IC50 in assay [3] of 500 to 5000 nM.

Consider `CC#CC(=O)N1CC(N(C)c2nc(OC[C@@H]3CCCN3C)nc3c(F)c(-c4ccc(F)c5sc(N)nc45)c(C(F)(F)F)cc23)C1` [Compound 129], for which the “GppNHp-KRAS G12C percent of modification” value in assay [1] (setting [5]) is “D (percent of modification <10%)”. The “GDP-KRAS G12C percent of modification” value in assay [2] (setting [5]) is listed as “A (percent of modification ≥70%)”. Moreover, the IC50 in assay [3] is 500 to 5000 nM.

Take `C=CC(=O)N1CC(N(C)c2nc(OC[C@@]34CCCN3C[C@H](OC)C4)nc3c(F)c(-c4ccc(F)c5sc(N)nc45)c(C(F)(F)F)cc23)C1` [Compound 201]: in assay [1] (setting [5]), the “GppNHp-KRAS G12C percent of modification” value was “C (10%≤percent of modification <50%)”. Further, the “GDP-KRAS G12C percent of modification” value in assay [2] (setting [5]) is “A (percent of modification ≥70%)”. Further, the IC50 in assay [3] was under 500 nM.

With `CN1CCC[C@H]1COc1nc(NC2CCN(C#N)CC2)c2cc(Cl)c(-c3ccc(F)c4sc(N)nc34)c(F)c2n1` [Compound 55], the “GppNHp-KRAS G12C percent of modification” value in assay [1] (setting [4]) is listed as “C (10%≤percent of modification <50%)”. Further, in assay [2] (setting [4]), the “GDP-KRAS G12C percent of modification” value is “B (50≤percent of modification <70%)”. In assay [3], this molecule yielded a half-maximal inhibitory concentration (IC50) of 500 to 5000 nM.

On to `C=CC(=O)N1CCN(c2nc(OCC34CCCN3CCC4)nc3c(F)c(-c4ccc(F)c5oc(N)nc45)c(C(F)(F)F)cc23)CC1` [Compound 162, 1-(4-(7-(2-amino-7-fluorobenzo[d]oxazol-4-yl)-8-fluoro-2-((tetrahydro-1H-pyrrolizin-7a(5H)-yl)methoxy)-6-(trifluoromethyl)quinazolin-4-yl)piperazin-1-yl)prop-2-en-1-one], for which, in assay [1] (setting [5]), the “GppNHp-KRAS G12C percent of modification” value is on record as “C (10%≤percent of modification <50%)”. The “GDP-KRAS G12C percent of modification” value in assay [2] (setting [5]) is “A (percent of modification ≥70%)”. This molecule had an IC50 in assay [3] of 500 to 5000 nM.

For the molecule `C=CC(=O)N1CCN(c2nc(OC[C@@]34CCCN3C[C@H](F)C4)nc3c(F)c(-c4ccc(F)c5sc(N)nc45)c(C(F)(F)F)cc23)C[C@H]1C` [Compound 207], the “GppNHp-KRAS G12C percent of modification” value in assay [1] (setting [5]) was “C (10%≤percent of modification <50%)”. Further, in assay [2] (setting [5]), the “GDP-KRAS G12C percent of modification” value is listed as “A (percent of modification ≥70%)”. This molecule also showed an IC50 in assay [3] of under 500 nM.

`CC#CC(=O)N1CC(Nc2nc(OC[C@@H]3CCCN3C)nc3c(F)c(-c4ccc(F)c5sc(N)nc45)c(Cl)cc23)C1` [Compound 92, 1-[3-[[7-(2-amino-7-fluoro-1,3-benzothiazol-4-yl)-6-chloro-8-fluoro-2-[[(2S)-1-methylpyrrolidin-2-yl]methoxy]quinazolin-4-yl]amino]azetidin-1-yl]but-2-yn-1-one]: the “GppNHp-KRAS G12C percent of modification” value in assay [1] (setting [4]) is given as “B (50≤percent of modification <70%)”. For the same molecule, in assay [2] (setting [4]), the “GDP-KRAS G12C percent of modification” value is given as “A (percent of modification ≥70%)”. The IC50 in assay [3] was under 500 nM.

With `C=CC(=O)N1C[C@H](C)N(c2nc(OC[C@]34CCCN3C[C@H](F)C4)nc3c(F)c(-c4ccc(F)c5sc(N)nc45)c(C(F)(F)F)cc23)C[C@H]1C` [Compound 204, 1-((2R,5S)-4-(7-(2-amino-7-fluorobenzo[d]thiazol-4-yl)-8-fluoro-2-(((2R,7aR)-2-fluorotetrahydro-1H-pyrrolizin-7a(5H)-yl)methoxy)-6-(trifluoromethyl)quinazolin-4-yl)-2,5-dimethylpiperazin-1-yl)prop-2-en-1-one], the “GppNHp-KRAS G12C percent of modification” value in assay [1] (setting [5]) is “C (10%≤percent of modification <50%)”. The “GDP-KRAS G12C percent of modification” value in assay [2] (setting [5]) was “B (50≤percent of modification <70%)”. In assay [3], this molecule gave an IC50 of under 500 nM.

With `CC#CC(=O)N1CCN(c2nc(OC[C@@H]3CCCN3CCF)nc3c(F)c(-c4ccc(F)c5sc(N)nc45)c(C(F)(F)F)cc23)CC1` [Compound 154], the “GppNHp-KRAS G12C percent of modification” value in assay [1] (setting [5]) is given as “D (percent of modification <10%)”. Also, in assay [2] (setting [5]), the “GDP-KRAS G12C percent of modification” value was “B (50≤percent of modification <70%)”. In assay [3], this molecule had an IC50 of over 20000 nM.

In the case of `C=CC(=O)N1C[C@H](N(C)c2ncnc3c(F)c(-c4ccc(F)c5sc(N)nc45)c(C(F)(F)F)cc23)C[C@H]1C` (atropisomer, axis not shown) [Compound 251], in assay [1] (setting [5]), the “GppNHp-KRAS G12C percent of modification” value is reported as “D (percent of modification <10%)”. Besides, the “GDP-KRAS G12C percent of modification” value in assay [2] (setting [5]) is “D (percent of modification <10%)”. In assay [3], the IC50 is over 20000 nM.

On to `C=CC(=O)N1CCN(c2nc(OC[C@@H]3CCCN3CCF)nc3c(F)c(-c4ccc(F)c5sc(N)nc45)c(C(F)(F)F)cc23)CC1` [Compound 153], for which the “GppNHp-KRAS G12C percent of modification” value in assay [1] (setting [5]) was “D (percent of modification <10%)”. Besides, in assay [2] (setting [5]), the “GDP-KRAS G12C percent of modification” value is on record as “B (50≤percent of modification <70%)”. This molecule gave a half-inhibitory concentration (IC50) in assay [3] of 500 to 5000 nM.
